Source: article doi:10.1101/2021.05.17.444542v1, “Structure Activity Relationship of USP5 Allosteric Inhibitors” (biorxiv, 2021)

Molecular target: T1, USP5 ZnF-UBD (USP5 171-290) (Homo sapiens, UniProt P45974)
T1 sequence (P45974 171-290): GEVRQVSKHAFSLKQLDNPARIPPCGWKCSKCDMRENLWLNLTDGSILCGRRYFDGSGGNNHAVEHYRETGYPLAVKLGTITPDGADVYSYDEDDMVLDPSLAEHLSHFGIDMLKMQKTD
Details: FITC-ubiquitin displacement, N=1; 100 µM; inhibitor

## O=C(O)CCC(=O)c1ccc(S(=O)(=O)N2CCC(c3ccc(F)c(F)c3)CC2)cc1 [compound 1, 1]
  % inhibition: 73%
